Test results from patent US20230173092A1, “ANTIBODY-DRUG CONJUGATES” (priority 2020, published 2023).

Legend:
[1] = tested on: Her2High SK-BR-3 (human breast adenocarcinoma) cells; test: CellTiter-Glo luminescence viability assay with MMAE ADC, SK-BR-3; assay type: cell-based; details: SK-BR-3 (Her2 High), 96 hours, n = 3
Method: (§1) The CellTiter-Glo® luminescence viability assay was used to measure the inhibitory effect of the MMAE ADC prepared in Example 3 on cell growth. Any reduction in cell proliferation or metabolic activity is indicative of the cytotoxic and/or cytostatic properties of a compound.
(§2) Her2^High SK-BR-3 (human breast adenocarcinoma, ATCC® HTB-30, Manassas, Va., United States) were cultured in McCoy's 5A medium supplemented with 200 U/mL penicillin, 200m/mL streptomycin and 20% heat-inactivated fetal bovine serum. Her2^Low JIMT-1 (human breast carcinoma, ACC589, DSMZ, Braunschweig, Germany) were cultured in DMEM GlutaMax® medium supplemented with 200 U/mL penicillin, 200 μg/mL streptomycin and 10% heat-inactivated fetal bovine serum. […]
(§3) After 96 hours in the presence of ADCs or controls, viability was detected using the CellTiterGlo® luminescence assay. […] The plates were then mixed for 3 minutes at 300 rpm to assist cell lysis and incubated for a further 20 minutes at room temperature to stabilise the luminescence signal. Luminescence was recorded using a SpectraMax i3x plate reader with a default integration time of 0.5 s/well.
(§4) Data were then analysed using a four-parameter non-linear regression model. Viability was expressed as a percentage of untreated cells, 100% viability corresponding to the average luminescence of wells containing cells treated with complete medium only. […]

[2] = tested on: Her2Negative NCI-H520 (human lung squamous cell carcinoma) cells; test: CellTiter-Glo luminescence viability assay with MMAE ADC, NCI-H520; assay type: cell-based; details: NCI-H520 (Her2 Negative), 96 hours, n = 3
Method: as §1, §2, §3, §4

[3] = tested on: NCI-N87 human gastric cancer CDX model; test: In vivo anti-tumour efficacy study in subcutaneous NCI-N87 CDX model in female BALB/c Nude mice; set-up: species or system Mus musculus; details: 3 mg/kg IV single dose
Method: The objective of this study was to evaluate the in vivo anti-tumour efficacy of the MMAE ADC of Example 3 in the subcutaneous NCI-N87 human gastric cancer CDX model in female BALB/c Nude mice.
The NCI-N87 tumor cells (ATCC, Manassas, Va., cat #CRL-5822) were maintained in vitro as a monolayer culture in RPMI-1640 medium supplemented with 10% fetal bovine serum, 1% Antibiotic-Antimycotic, at 37° C. in an atmosphere of 5% CO2 in air. The tumour cells were routinely subcultured twice weekly by trypsin-EDTA treatment. The cells growing in an exponential growth phase were harvested and counted for tumour inoculation.
Each mouse for efficacy study was inoculated subcutaneously at the right flank with NCI-N87 tumour cells (10×10^6) in 0.2 mL of PBS supplemented with Matrigel (1:1) for tumour development. Treatments were started on day 6 after tumour inoculation when the average tumour size reached approximately 198 mm^3. […]
All the procedures related to animal handling, care and the treatment in the study were performed according to the guidelines approved by the Institutional Animal Care and Use Committee (IACUC) of the CRO following the guidance of the Association for Assessment and Accreditation of Laboratory Animal Care (AAALAC). At the time of routine monitoring, the animals were daily checked for any effects of tumour growth and treatments on normal behaviour such as mobility, food and water consumption (by looking only), body weight gain/loss (body weights were measured twice weekly), eye/hair matting and any other abnormal effect as stated in the protocol. Death and observed clinical signs were recorded on the basis of the numbers of animals within each subset.
The major endpoint was to see if the tumour growth could be delayed or mice could be cured. Tumour size was measured twice weekly in two dimensions using a calliper, and the volume was expressed in mm^3 using the formula: V=0.5 a×b^2 where a and b are the long and short diameters of the tumour, respectively. […]

[4] = tested on: SK-BR-3 (HER2 High) cells; test: CellTiter-Glo luminescence viability assay with SN-38 ADCs, SK-BR-3, limited and continuous exposure; assay type: cell-based, human; details: n = 3
Method: The CellTiter-Glo® luminescence viability assay (Promega, Southampton, UK) was used to measure the inhibitory effect of the SN-38 ADCs on cell growth. Any reduction in cell proliferation or metabolic activity is indicative of the cytotoxic and/or cytostatic properties of a compound. SK-BR-3 cells (human breast adenocarcinoma, ATCC HTB-30) were cultured in McCoys 5A media (ThermoFisher Scientific, Loughborough, UK) supplemented with 200 U/mL penicillin, 200 μg/mL streptomycin and 20% heat-inactivated fetal bovine serum (Cytiva Hyclone™, ThermoFisher Scientific, Loughborough, UK). SK-BR-3 (HER2 High) cells were seeded in 384-well plates at a density of 1.25×10^3 cells in 20 μL growth medium. […]
as §3, with “Viability” for “After 96 hours in the presence of ADCs or controls, viability”, “CellTiter-Glo®” for “CellTiterGlo®”, “reader (Molecular Devices, Wokingham, UK),” for “reader”, “s/well. […]” for “s/well.”
as §4, with “was” for “were”, “analysed on GraphPad Prism version 8 (GraphPad Software, La Jolla, Calif.)” for “analysed”

Substance | IC50 [1] [nM] | IC50 [2] [nM] | mean tumour volume on PG-D42 [3] [mm^3] | T/C ([3]; PG-D42) [%] | TGI ([3]; PG-D42) [%] | IC50 ([4]; continuous exposure 96 h, read-out: SK-BR-3 IC50 (nM) Mean (±St.Dev.) 96 h exposure) [nM] | IC50 ([4]; limited exposure 9 h, washed, further 96 hours, read-out: SK-BR-3 IC50 (nM) Mean (±St.Dev.) 9 h exposure) [nM]
Kadcyla ® | 0.047 ± 0.021 | 37.3 ± 16.1 | 574 | 29.37 | 78.58 | – | –
Trastuzumab | 0.141 ± 0.138 | > 1000 | – | – | – | – | –
Trastuzumab-CL2A-SN-38 | – | – | – | – | – | 0.1 ± 0.01 | 5.56 ± 2.91

Read-outs that look alike come from different tables or passages of the source.
